Results: US9575038B2, “Universal detector calibrant” (dated 2017)
Marks after values point to notes of the source that are not given here.

Key:
[1] = tested on: detection canines; experiment: Field Testing with PFTBA Training (double-blind presentation of PFTBA sample and blank)
[2] = tested on: detection canines; experiment: Odor Recognition Test Before Training (canines untrained on 1-BO, controlled odor permeation system)
[3] = tested on: detection canines; experiment: Odor Recognition Test After Training

| Structure (SMILES) | % Alert ([1]; two canines (nos. 136 and 143) after three days of imprint, gauze in LDPE bag) [%] | canine identification of the sample ([1]; two canines, versus blank sample) | No Alert (%) ([2]; Accelerant detection canines (n = 2)) | No Alert (%) ([2]; Drug detection canines (n = 13)) | No Alert (%) ([2]; Explosives detection canines (n = 22)) | Interest (%) ([2]; Explosives detection canines (n = 22), canine is not odor discriminating) | alert of untrained canines to the compound ([2]; all tested canines) | training of detection canines to alert to the compound [3] | Successfully Imprinted ([3]; Drug detection canines (n = 3)) [%] | Successfully Imprinted ([3]; Explosives detection canines (n = 5)) [%] |
| --- | --- | --- | --- | --- | --- | --- | --- | --- | --- | --- |
| FC(F)(F)C(F)(F)C(F)(F)C(F)(F)N(C(F)(F)C(F)(F)C(F)(F)C(F)(F)F)C(F)(F)C(F)(F)C(F)(F)C(F)(F)F | 100 | correctly identified and altered to the PFTBA sample |  |  |  |  |  |  |  |  |
| CCCCCCCCBr |  |  | 100 | 100 | 86 | 9* % | did not alert | successfully trained to alert | 100 | 100 |
